# Apparent affinities of Ab-91 variants for a coronavirus HR2 peptide

Binding partner: SARS-CoV-2 spike HR2 peptide, sequence PDVDLGDISGINAS.

Ab-91 is the parent antibody, in scFv form: VL, then three GGGGS repeats, then VH. The light chain is unchanged in all variants.
VL: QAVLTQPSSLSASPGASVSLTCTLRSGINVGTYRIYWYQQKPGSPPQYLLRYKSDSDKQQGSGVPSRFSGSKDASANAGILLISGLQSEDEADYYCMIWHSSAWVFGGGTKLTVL
VH: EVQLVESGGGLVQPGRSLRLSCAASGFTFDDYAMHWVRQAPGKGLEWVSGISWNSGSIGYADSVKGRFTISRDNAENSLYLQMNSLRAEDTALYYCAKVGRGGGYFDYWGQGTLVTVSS

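The parent was found by panning a naive human phage display library on the peptide. Variants in AAYL51 differ from the parent at up to three CDR positions; double and triple changes were sampled at random. AlphaSeq pools MATa yeast showing the antibodies with MATalpha yeast showing the peptide. Pairs that bind mate more often; barcode pairs of the diploids are counted by sequencing. A regression on co-assayed BCL2-family reference pairs converts the normalised counts of each replicate to an apparent Kd. There are three technical replicates.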

The whole VH of each variant is written out.
Values are apparent Kd, the geometric mean of the replicates that gave a signal; lower means stronger binding.
A pair that was not seen in any replicate is written "no signal"; this usually means weak binding, but a binder can also be missed.
Order: sorted from the lowest average up, undetected variants last.
Three control strains display no target. For library AAYL51, 21% of the pairings with them gave a signal, with a median of 34 µM and one signal in twenty below 1.8 µM, so weak values seen in few replicates may be background. For each scFv, signals with the empty controls are counted beside the result.
Parent in this assay: reference entry 72 nM, copy in this library 7.5 nM.

| VH | Kd | replicates with signal | empty controls |
|---|---|---|---|
| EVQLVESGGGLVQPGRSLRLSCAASGFTGDDYAWHWVRQAPGKGLEWVSGISWNSGSVGYADSVKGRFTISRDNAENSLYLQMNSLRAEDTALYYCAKVGRGGGYFDYWGQGTLVTVSS | 2.0 nM | 3/3 | 2/9 |
| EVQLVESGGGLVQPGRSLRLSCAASGFTFDDYAMHWVRQAPGKGLEWVSGISANSGSIGYDDNVKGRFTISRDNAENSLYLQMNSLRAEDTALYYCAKVGRGGGYFDYWGQGTLVTVSS | 12 nM | 3/3 | 2/9 |
| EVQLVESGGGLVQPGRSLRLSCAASGFTFDDYAMHWVRQAPGKGLEWVSGISQNSGSIGYADSQKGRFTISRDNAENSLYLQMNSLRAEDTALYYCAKVGRGGGYFCYWGQGTLVTVSS | 580 nM | 1/3 | 0/9 |
| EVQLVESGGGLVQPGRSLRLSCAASGFTFDDYAMHWVRQAPGKGLEWVSGISWNIGSIGYADSVKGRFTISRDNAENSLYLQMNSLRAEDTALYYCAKVGRGGGYCGYWGQGTLVTVSS | 1.9 µM | 2/3 | 0/9 |
| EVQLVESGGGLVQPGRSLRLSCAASGFTFDDYAMHWVRQAPGKGLEWVSGISWNSGSMNYCDSVKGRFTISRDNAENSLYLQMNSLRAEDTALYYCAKVGRGGGYFDYWGQGTLVTVSS | 5.1 µM | 1/3 | 0/9 |
| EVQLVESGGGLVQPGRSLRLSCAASGFTFDDYAMHWVRQAPGKGLEWVSGISWNSGSIKYADSVKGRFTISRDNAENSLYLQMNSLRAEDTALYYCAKVGRGGGYFDPWGQGTLVTVSS | 12 µM | 1/3 | 0/9 |
| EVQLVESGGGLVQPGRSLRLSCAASGATFDDYVMHWVRQAPGKGLEWVSGISWNSGAIGYADSVKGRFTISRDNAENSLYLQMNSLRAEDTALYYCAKVGRGGGYFDYWGQGTLVTVSS | 24 µM | 1/3 | 1/9 |
| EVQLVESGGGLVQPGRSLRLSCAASGFTFDDYAMHWVRQAPGKGLEWVSGISWNSGSIGYADSVKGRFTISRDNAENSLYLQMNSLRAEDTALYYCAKVGRGGPYYDLWGQGTLVTVSS | 35 µM | 3/3 | 4/9 |
| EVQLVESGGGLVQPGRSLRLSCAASGFTFDPYAMHWVRQAPGKGLEWVSGITWNSGSIGYANSVKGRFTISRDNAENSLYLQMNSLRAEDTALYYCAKVGRGGGYFDYWGQGTLVTVSS | 45 µM | 2/3 | 3/9 |
| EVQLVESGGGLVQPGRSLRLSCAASGFTFDDYAMHWVRQAPGKGLEWVSGISWNYGSIGYADTVKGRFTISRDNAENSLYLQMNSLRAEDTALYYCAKMGRGGGYFDYWGQGTLVTVSS | 47 µM | 2/3 | 0/9 |
| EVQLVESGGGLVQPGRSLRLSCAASGFTFDDYAMRWVRQAPGKGLEWVSGISWNDGSIGYADYVKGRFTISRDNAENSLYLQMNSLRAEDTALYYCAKVGRGGGYFDYWGQGTLVTVSS | 100 µM | 2/3 | 5/9 |
| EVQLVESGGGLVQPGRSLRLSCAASGFQFDDYAMHWVRQAPGKGLEWVSGISANSGSIGYADSVKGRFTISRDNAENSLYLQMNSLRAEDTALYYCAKAGRGGGYFDYWGQGTLVTVSS | 140 µM | 2/3 | 4/9 |
| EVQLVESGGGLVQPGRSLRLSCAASGFTPDDYAYHWVRQAPGKGLEWVSGISWNSGSIGYADSVKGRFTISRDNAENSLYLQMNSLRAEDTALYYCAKVGGGGGYFDYWGQGTLVTVSS | 420 µM | 3/3 | 3/9 |
| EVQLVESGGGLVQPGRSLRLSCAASGFTFDDYAMHWVRQAPGKGLEWVSGISHNSGSIGYADSVKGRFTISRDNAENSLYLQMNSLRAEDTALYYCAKVGRGGIYNDYWGQGTLVTVSS | no signal | 0/3 | 0/9 |
| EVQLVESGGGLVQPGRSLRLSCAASGFTFDDYAMHWVRQAPGKGLEWVSGISWNSGSIRYGDSLKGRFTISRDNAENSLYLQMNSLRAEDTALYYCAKVGRGGGYFDYWGQGTLVTVSS | no signal | 0/3 | 5/9 |
| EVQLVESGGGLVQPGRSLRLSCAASEFTDDDYAMHWVRQAPGKGLEWVSGISWNSGSIGYADSVKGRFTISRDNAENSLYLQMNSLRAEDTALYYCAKVGRGGGYSDYWGQGTLVTVSS | no signal | 0/3 | 1/9 |
| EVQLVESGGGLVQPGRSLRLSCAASWFTFDDYAMHWVRQAPGKGLEWVSGISWNSGSIGYADSVKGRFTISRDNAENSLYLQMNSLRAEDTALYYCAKVGRGGGTFDYWGQGTLVTVSS | no signal | 0/3 | 1/9 |
| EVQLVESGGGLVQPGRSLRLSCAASGFTFDDYAMHWVRQAPGKGLEWVSGISWNSGSIMYADPVKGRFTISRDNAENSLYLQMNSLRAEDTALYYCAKVGQGGGYFDYWGQGTLVTVSS | no signal | 0/3 | 0/9 |
| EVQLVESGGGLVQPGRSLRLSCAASGFTFDDYAMHWVRQAPGKGLEWVSGISWYSGSWGYADSVYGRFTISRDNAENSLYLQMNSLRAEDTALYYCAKVGRGGGYFDYWGQGTLVTVSS | no signal | 0/3 | 0/9 |
| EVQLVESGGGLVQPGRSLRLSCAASGFTFDDYFMHWVRQAPGKGLEWVSGIHWNSGSIGYADSVKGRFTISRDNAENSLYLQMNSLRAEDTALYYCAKVGRGRGYFDYWGQGTLVTVSS | no signal | 0/3 | 3/9 |
| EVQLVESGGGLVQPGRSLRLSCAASGFTFDDYAMHWVRQAPGKGLEWVSGISWNSGSIGYADSMKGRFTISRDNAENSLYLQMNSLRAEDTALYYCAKVGRGGGYHDYWGQGTLVTVSS | no signal | 0/3 | 1/9 |
| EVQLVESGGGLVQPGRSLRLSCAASGFTFDDYAMHWVRQAPGKGLEWVSGISWNSGSIEYADSVKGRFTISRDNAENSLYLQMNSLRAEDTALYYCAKVRRGGGYFDYWGQGTLVTVSS | no signal | 0/3 | 0/9 |
| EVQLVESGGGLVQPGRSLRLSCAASGFTFDDYAMNWVRQAPGKGLEWVSGISWNSGSIGYWDSDKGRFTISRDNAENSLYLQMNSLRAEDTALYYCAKVGRGGGYFDYWGQGTLVTVSS | no signal | 0/3 | 0/9 |

Values reported by Engelhart et al. 2022, doi:10.1038/s41597-022-01779-4 (FLAb copy).